The assay concerns the target PIP5K1B (Homo sapiens, UniProt O14986). The assay is described as follows: cell-free kinase assay (Thermo Fisher SelectScreen, ADP detection), 10-point dose response; […] inhibition at […].

Chains of the proteins cited; added tags and fusions are not shown.
UniProt O14986, whole entry: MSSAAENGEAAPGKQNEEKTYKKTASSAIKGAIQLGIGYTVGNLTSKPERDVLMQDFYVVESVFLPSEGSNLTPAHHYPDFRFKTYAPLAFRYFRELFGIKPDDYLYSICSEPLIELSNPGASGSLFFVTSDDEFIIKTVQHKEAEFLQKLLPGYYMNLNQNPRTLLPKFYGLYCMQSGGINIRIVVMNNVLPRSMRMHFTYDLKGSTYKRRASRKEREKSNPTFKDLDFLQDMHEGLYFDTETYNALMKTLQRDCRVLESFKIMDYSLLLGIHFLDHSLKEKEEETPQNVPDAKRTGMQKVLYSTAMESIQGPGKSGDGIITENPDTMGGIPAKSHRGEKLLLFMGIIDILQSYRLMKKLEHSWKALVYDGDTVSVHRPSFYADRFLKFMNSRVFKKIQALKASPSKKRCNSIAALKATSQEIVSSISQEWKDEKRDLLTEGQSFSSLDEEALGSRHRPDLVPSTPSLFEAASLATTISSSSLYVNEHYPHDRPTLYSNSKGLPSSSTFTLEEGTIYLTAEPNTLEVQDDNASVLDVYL

pIC50: −log10 of the molar value.

On to `c1ccc(CNc2nc(Nc3ccc(-c4nc5ccccc5[nH]4)cc3)nc(N3CCOCC3)n2)cc1`, for which the negative-log IC50 (pIC50) was 6.16. Compound `c1ccc(Nc2nc(Nc3ccc(-c4nc5ccccc5[nH]4)cc3)nc(N3CCOCC3)n2)cc1` showed a negative logarithm of the IC50 (pIC50) of 6.62.

As usually defined, the pIC50 is the IC50 on a negative log10 scale, so that one unit is a factor of ten. High values mean a low IC50, low ones a high IC50.

The values are drawn from PMC13193874, “Targeting PIP5K ameliorates hepatic cancer by inhibiting PI3K/AKT and the autophagy mechanism and enhancing ROS-mediated apoptosis” (Frontiers in Pharmacology, 2026).
